This series is described as follows: Phase 2 study: adverse events on treatment. The format is in vivo, human. The text has this:
Diagnosis of primary, post-essential thrombocythemia, or post-polycythemia vera MF was required; other eligibility criteria included measurable splenomegaly (by magnetic resonance imaging [MRI]), active MF-related systemic symptoms and platelet count ≥75×10^9/L. Primary endpoints were: spleen response rate (% achieving ≥35% spleen volume reduction [SVR] by MRI at week 24); and symptom response rate (% achieving ≥50% reduction in total symptom score [TSS] per the Myelofibrosis Symptom Assessment Form (MFSAF) v2 at week 24). Key secondary endpoints included safety, overall survival (OS), treatment response, molecular response, and pharmacokinetic and pharmacodynamic relationships.

Experimental findings from patent US20200063214A1, “METHODS OF IDENTIFYING PATIENTS LIKELY TO BENEFIT FROM TREATMENT WITH A TELOMERASE INHIBITOR” (Geron Corporation, priority 2018, published 2020) are described below.

Take “DNA, d(3′-amino-3′-deoxy-P-thio) (T-A-G-G-G-T-T-A-G-A-C-A-A), 5′-[O-[2-hydroxy-3-(hexadecanoylamino)propyl] phosphorothioate], sodium salt (1:13) [imetelstat sodium]”: for the setting “9.4 mg/kg”, the “Grade 3/4 neutropenia” value is 34%; the “Grade 3/4 thrombocytopenia” value is 42%; the “anemia, adverse event (all grades)” value came to 44%; the “nausea, adverse event (all grades)” value is 34%. Where the note is “9.4 mg/kg”, the “neutropenia, adverse event (all grades)” value amounted to 36% and the “thrombocytopenia, adverse event (all grades)” value came out at 49%. The “time to resolution of most cytopenias” value (both arms) is at most 4 weeks. In addition, where the note is “on study, both arms”, the “Grade 3/4 LFT elevations” value was 7 patients.
